Results on 2 compounds are retold here after patent US6410255B1, “Optical probes and assays” (priority 1999, dated 2002).

The target of one experiment is protein kinase A (Homo sapiens, UniProt P17612). The experiment in a line: Protein kinase A inhibitor assay with optical probe. In kind it is biochemical. The following applies: inhibitor 10 μM, ATP 10 μM. The method, then:
[…] After one hour incubation at 30 C, chymotrypsin to a final concentration of 0.8 nM was added and the 460/530 ratio was determined after one hour, as described above (Example 6).

The target in a further experiment is T1, Src kinase (Homo sapiens, UniProt P12931).
T1 construct: purchased Upstate Biotechnology
The experiment can be described thus: Src kinase phosphorylation of optical probes. The following applies: fluorescence after protease incubation; read-out: apparent Km with respect to the Src kinase. The format is biochemical. The method, then: To measure Src kinase activity, two optical probes Src-1 ([…], SEQ. ID. NO: 3) and Src-2 ([…], SEQ. ID. NO: 29) were developed. […] In the second substrate, Src-2, the negatively charged amino acid (Glu=E) in the P′2 position with respect to the protease site, was changed to valine (Val=V) to enable more efficient cleavage of the non-phosphorylated optical probe by chymotrypsin. Src kinase (Upstate Biotechnology) reaction conditions were the same as described in Example 1, except 25 mM glycerol phosphate and 1 mM DTT were also added. Incubation of the optical probe with chymotrypsin (100 nM) and measurement of fluorescence emission ratios were as described in Example 1. The apparent Kms for the two substrates, (determined by fluorescence measurements after protease incubation) with respect to the Src kinase were 11 μM and 19 μM respectively. Other optical probes, designed as described herein, can be generated to create specific optical probes for a range of tyrosine kinase activities that can subsequently be optimized using the methods described herein.

For `CN[C@@H]1C[C@H]2O[C@@](C)([C@@H]1OC)n1c3ccccc3c3c4c(c5c6ccccc6n2c5c31)C(=O)NC4` [Staurosporin, staurosporin], the “inhibition of protein kinase A activity” value on protein kinase A is given as “almost complete inhibition”.
For “GEEEIYGEIEK (fluorescent label; Optical probe specific motif) [Src-1, fluorescently labeled optical probe for Src kinase]”, in the experiment with Src kinase, the Km – broadly, the substrate concentration at which the rate is half of its maximum – is 11 µM.
